Literature values in patent publication US6649649B1, “Method of treating colonic adenomas” (Merck & Co., Inc., priority 1995, dated 2003).

Tested on: PGHS-1 or PGHS-2

SMILES: CC1=C(CC(=O)O)c2cc(F)ccc2/C1=C\c1ccc([S+](C)[O-])cc1 (stereo not shown) [sulindac]
- selectivity for inhibition of either PGHS-1 or PGHS-2: little selectivity
